Values quoted from earlier work as cited in patent publication US9320750B2, “Compositions and methods of treatment of drug resistant cancers” (priority 2012, dated 2016).

System: TNBC patients
Settings: randomized phase II trial; cited from earlier work

cetuximab
outcome on addition to carboplatin: did not improve outcome
